Measurements: ChEMBL document CHEMBL6083232, “A review on synthetic inhibitors of dual-specific tyrosine phosphorylation-regulated kinase 1A (DYRK1A) for the treatment of Alzheimer's disease (AD)” (Bioorg Med Chem, 2024)

Chains of the proteins cited; added tags and fusions are not shown. Lines headed by an entry give the natural chain unless they say otherwise; changes in a name come on top.
UniProt P49759: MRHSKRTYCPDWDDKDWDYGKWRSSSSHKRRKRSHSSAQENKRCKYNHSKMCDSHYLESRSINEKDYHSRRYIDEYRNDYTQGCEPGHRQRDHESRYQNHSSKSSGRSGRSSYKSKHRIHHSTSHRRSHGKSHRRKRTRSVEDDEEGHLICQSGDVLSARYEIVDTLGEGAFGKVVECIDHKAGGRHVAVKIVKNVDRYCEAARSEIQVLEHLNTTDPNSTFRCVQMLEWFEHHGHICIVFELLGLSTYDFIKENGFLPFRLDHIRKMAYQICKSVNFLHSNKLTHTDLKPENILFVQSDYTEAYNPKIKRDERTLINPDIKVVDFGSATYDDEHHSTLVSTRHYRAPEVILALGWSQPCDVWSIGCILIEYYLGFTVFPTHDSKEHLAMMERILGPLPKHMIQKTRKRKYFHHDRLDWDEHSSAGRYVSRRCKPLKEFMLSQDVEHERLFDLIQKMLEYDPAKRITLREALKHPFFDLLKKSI

Target: Dual specificity protein kinase CLK1 (Homo sapiens, UniProt P49759)
Experiment: Inhibition of CLK1 (unknown origin)

`O=C1NC(Nc2ccccc2)=N/C1=C\c1ccc2c(c1)OCO2` showed an IC50 of 35 nM.
